# Experimental data published in article PMC5645467.
# Molecular target: GST-RCC1 (full-length human RCC1, wild type) (human) (UniProt P18754)
# Test: pull-down; GST-RCC1 constructs (~0.75 µM) pre-incubated with His-tagged ΔIBB-importin α1 or α3 (~1 µM), glutathione beads, eluted with reduced glutathione; SDS-PAGE, quantified, ΔIBB-importin α3 pulled down by GST-RCC1 = 100%
substance,measurement,value
His-tagged ΔIBB-importin α1 (from UniProt P52293 70-529) (domain or fragment; other documents disagree on this pair),percent pulled down (importin α3 pulled down by GST-RCC1 = 100%),< 12%
